What was measured:
[1] = molecular target: human serotonin 5-HT2C receptor (Homo sapiens, UniProt P28335); assay: Radioligand binding assay, human 5-HT2C receptors ([3H]Mesulergine); details: read-out: IC50 (nM) 5-HT2c, Example 16 table
[2] = molecular target: human dopamine D3 receptor (Homo sapiens, UniProt P35462); details: read-out: IC50 (nM) Against Human D3 Receptors; Example 20 table
[3] = molecular target: human serotonin 5-HT6 receptor (Homo sapiens, UniProt P50406); assay: Radioligand binding assay, human 5-HT6 receptors ([3H]LSD); details: read-out: IC50 (nM) 5-HT6, Example 16 table
[4] = molecular target: human serotonin 5-HT2A receptor (Homo sapiens, UniProt P28223); assay: Radioligand binding assay, human 5-HT2A receptors ([3H]Ketanserin); details: read-out: IC50 (nM) 5-HT2a, Example 16 table
[5] = molecular target: human serotonin 5-HT2B receptor (Homo sapiens, UniProt P41595); assay: Radioligand binding assay, human 5-HT2B receptors ([3H]LSD); details: read-out: IC50 (nM) 5-HT2b, Example 16 table

By UniProt entry, the sequences of proteins in these tests, tags left out. Residues count along the entry.
UniProt P28335, 33-458 limits assumed: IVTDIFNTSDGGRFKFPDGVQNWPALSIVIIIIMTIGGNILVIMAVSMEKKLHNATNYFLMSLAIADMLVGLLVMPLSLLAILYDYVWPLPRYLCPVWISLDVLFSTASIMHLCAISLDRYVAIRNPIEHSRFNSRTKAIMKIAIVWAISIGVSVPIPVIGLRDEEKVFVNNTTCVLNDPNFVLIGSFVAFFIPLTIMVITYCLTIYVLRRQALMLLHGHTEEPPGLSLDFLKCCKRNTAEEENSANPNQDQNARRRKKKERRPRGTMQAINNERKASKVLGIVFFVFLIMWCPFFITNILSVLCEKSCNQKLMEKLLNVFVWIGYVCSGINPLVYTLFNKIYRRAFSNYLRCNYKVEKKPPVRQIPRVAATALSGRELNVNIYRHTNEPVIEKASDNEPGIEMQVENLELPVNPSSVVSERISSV
UniProt P35462, whole entry: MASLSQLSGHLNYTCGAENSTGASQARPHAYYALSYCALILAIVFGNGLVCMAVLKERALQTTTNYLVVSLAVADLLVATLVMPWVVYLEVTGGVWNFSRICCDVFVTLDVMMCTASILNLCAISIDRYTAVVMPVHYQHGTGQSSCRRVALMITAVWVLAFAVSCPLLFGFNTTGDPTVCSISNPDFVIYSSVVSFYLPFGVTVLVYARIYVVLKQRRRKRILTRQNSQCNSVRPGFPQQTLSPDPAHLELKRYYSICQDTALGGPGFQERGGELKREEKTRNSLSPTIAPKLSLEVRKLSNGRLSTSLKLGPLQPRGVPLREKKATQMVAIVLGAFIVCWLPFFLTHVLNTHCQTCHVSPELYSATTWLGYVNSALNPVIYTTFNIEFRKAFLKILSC
UniProt P50406, whole entry: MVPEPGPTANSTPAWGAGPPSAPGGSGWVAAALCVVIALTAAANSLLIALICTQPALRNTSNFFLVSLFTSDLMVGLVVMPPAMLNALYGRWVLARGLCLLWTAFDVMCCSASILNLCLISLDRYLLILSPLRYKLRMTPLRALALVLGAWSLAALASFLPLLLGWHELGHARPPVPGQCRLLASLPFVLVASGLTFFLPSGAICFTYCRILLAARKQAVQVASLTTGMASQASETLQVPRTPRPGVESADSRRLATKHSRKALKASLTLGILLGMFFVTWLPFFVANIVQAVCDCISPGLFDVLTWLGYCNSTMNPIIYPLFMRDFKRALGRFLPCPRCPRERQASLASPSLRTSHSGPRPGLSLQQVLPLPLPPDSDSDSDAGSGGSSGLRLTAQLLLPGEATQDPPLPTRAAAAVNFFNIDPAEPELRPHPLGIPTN
UniProt P28223, whole entry: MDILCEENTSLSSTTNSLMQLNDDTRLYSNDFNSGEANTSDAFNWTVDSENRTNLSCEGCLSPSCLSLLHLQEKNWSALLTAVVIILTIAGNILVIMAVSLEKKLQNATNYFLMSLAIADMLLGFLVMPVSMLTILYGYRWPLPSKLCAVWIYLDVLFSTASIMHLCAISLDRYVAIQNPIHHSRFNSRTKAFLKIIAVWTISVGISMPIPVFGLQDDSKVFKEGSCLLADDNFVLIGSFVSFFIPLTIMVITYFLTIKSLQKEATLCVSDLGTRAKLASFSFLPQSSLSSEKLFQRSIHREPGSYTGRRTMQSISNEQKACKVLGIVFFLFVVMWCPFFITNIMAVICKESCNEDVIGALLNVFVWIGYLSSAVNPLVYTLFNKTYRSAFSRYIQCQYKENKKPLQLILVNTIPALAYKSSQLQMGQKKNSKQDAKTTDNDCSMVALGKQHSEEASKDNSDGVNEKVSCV
UniProt P41595, whole entry: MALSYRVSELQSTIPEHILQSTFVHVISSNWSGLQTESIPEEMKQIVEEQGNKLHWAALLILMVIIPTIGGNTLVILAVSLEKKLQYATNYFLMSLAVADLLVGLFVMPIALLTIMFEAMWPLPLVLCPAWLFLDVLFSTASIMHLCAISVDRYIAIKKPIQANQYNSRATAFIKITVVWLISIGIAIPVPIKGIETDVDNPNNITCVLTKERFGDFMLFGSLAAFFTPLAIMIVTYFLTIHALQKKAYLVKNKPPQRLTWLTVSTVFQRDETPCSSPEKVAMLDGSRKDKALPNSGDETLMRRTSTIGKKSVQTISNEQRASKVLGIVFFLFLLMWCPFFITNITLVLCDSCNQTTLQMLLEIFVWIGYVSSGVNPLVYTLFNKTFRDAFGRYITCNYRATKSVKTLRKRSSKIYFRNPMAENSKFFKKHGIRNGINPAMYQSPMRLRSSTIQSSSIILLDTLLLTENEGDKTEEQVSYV

SMILES	IC50 [1]	IC50 [2]	IC50 [3]	IC50 [4]	IC50 [5]
CN1CCC(c2nc(C3(c4ccccc4F)CCCCC3)cs2)CC1	< 1000 nM	< 1000 nM	< 1000 nM	< 1000 nM	< 1000 nM
CCN(CC)CCCNc1nc(C2(c3ccc(Cl)cc3)CCC2)cs1.O=C(O)CC(O)(CC(=O)O)C(=O)O [Compound 20, N′-{4-[1-(4-chlorophenyl)cyclobutyl]thiazol-2-yl}-N,N-diethylpropane-1,3-diamine citrate salt]	< 100 nM	< 1000 nM	> 1000 nM	< 1000 nM	< 1000 nM
CN1CCC(c2nc(C3(c4ccc(Cl)cc4)CCCC3)cs2)CC1	< 1000 nM	> 1000 nM	< 1000 nM	< 1000 nM	< 1000 nM
